## Ab-95 light chain CDR variants: yeast mating affinities

From the AlphaSeq antibody data of Engelhart et al. 2022 (doi:10.1038/s41597-022-01779-4), copy in the FLAb collection.

Binding partner: SARS-CoV-2 spike HR2 peptide, sequence PDVDLGDISGINAS.

Ab-95 is the parent antibody, in scFv form: VH, then a 15-residue (Gly4Ser)3 linker, then VL. The heavy chain is unchanged in all variants.
VH: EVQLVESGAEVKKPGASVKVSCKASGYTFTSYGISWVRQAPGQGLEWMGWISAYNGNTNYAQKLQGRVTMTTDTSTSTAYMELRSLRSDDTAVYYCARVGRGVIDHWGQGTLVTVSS
VL: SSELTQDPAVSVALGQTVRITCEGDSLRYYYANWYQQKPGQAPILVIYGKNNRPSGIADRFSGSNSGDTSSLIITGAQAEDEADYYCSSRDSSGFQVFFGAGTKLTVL

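Phage display of a naive human antibody library on the peptide gave the parent. The library (AAYL52) carries one to three amino acid substitutions per variant, with no insertions or deletions. AlphaSeq pools MATa yeast showing the antibodies with MATalpha yeast showing the peptide. Mating (16 h, 30 °C) was followed by selection of diploids and sequencing of their barcodes. Scores were corrected for input abundance and mapped to Kd with protein pairs of known affinity run in the same pool. There are three technical replicates.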

Substitutions are numbered in sequence along the VL above, starting at 1 (not Kabat).
This list gathers variants with a substitution at S55 (VL, numbered from residue 1).
Kd is apparent (estimated from mating counts) and averaged on the log scale over replicates with a signal. Smaller is tighter.
An entry "no signal" has no value in the source: the pair was not observed among the diploids in any replicate. This suggests poor binding but is not conclusive.
Entries are sorted by rising average, undetected variants last.
For reference, the parent read 200 nM as the reference entry and 180 nM as a member of this library.

The variant Y31D+S55Y+F98W showed 6.5 nM (3 of 3 replicates).
The variant Y30H+N52T+S55Q showed 21 nM (3 of 3 replicates).
The variant S55N+F95N+Q96Y showed 44 nM (3 of 3 replicates).
The variant Y30M+S55K+G94K showed 66 nM (3 of 3 replicates).
The variant G24R+Y31N+S55V showed 120 nM (3 of 3 replicates).
The variant G24L+S55G+F98A showed 160 nM (1 of 3 replicates).
The variant R53H+S55L+F95A showed 180 nM (3 of 3 replicates).
The variant N51L+N52E+S55R showed 200 nM (3 of 3 replicates).
The variant S26R+Y29I+S55I showed 210 nM (3 of 3 replicates).
The variant P54W+S55D+F95K showed 330 nM (3 of 3 replicates).
The variant G49H+S55Q+S88Q showed 400 nM (3 of 3 replicates).
The variant S55A+D91F+S92M showed 470 nM (3 of 3 replicates).
The variant D25A+K50M+S55F showed 580 nM (3 of 3 replicates).
The variant S26H+N52V+S55I showed 670 nM (3 of 3 replicates).
The variant D25G+S55K+S92Y showed 670 nM (3 of 3 replicates).
The variant L27T+S55V+G94D showed 790 nM (1 of 3 replicates).
The variant Y31I+S55K showed 820 nM (3 of 3 replicates).
The variant N52K+S55C+V97S showed 1.2 µM (3 of 3 replicates).
The variant G49D+S55L+S89G showed 1.2 µM (3 of 3 replicates).
The variant S55M+S89Q+F95P showed 1.3 µM (3 of 3 replicates).
The variant G49A+S55H+G94I showed 1.7 µM (3 of 3 replicates).
The variant N52K+S55R showed 2.5 µM (2 of 3 replicates).
The variant D25R+N52R+S55M showed 2.7 µM (3 of 3 replicates).
The variant S55L+S89H+F95E showed 3.1 µM (3 of 3 replicates).
The variant R53Y+S55D+D91R showed 3.7 µM (3 of 3 replicates).
The variant N52I+S55I+S88V showed 5.2 µM (3 of 3 replicates).
The variant S55F+G94Y+F98D showed 8.5 µM (3 of 3 replicates).
The variant A32R+S55T+V97G showed 10 µM (1 of 3 replicates).
The variant D25F+N52G+S55V showed 12 µM (3 of 3 replicates).
The variant K50L+S55F+Q96V showed 19 µM (1 of 3 replicates).
The variant S26N+P54T+S55F showed 22 µM (2 of 3 replicates).
The variant S55I+D91G+V97S showed 29 µM (2 of 3 replicates).
The variant S26K+S55V+F98C showed 93 µM (1 of 3 replicates).
The variant R53G+S55V+F98M showed 120 µM (1 of 3 replicates).
The variant D25P+S55G+S89L showed no signal (0 of 3 replicates).
The variant Y31R+S55L+S92G showed no signal (0 of 3 replicates).

Nonspecific signal, from three strains lacking the peptide, appeared in 28% of pairings of library AAYL52, centred on 8.2 µM (5% of these signals below 800 nM); values are not corrected for it.